Literature values in patent US20220062190A1, “Therapeutic Agent and Nutraceutical Compositions And Methods for Making and Using Same” (NUREVELATION, LLC, priority 2020, published 2022).

Details: cited from earlier work

Cc1cc2c(s1)Nc1ccccc1N=C2N1CCN(C)CC1 [Olanzapine]
LogP: 4.09
